The test deals with D(2) dopamine receptor (Rattus norvegicus, UniProt P61169).

Amino acid sequences for entries named in this document (tags omitted).
UniProt P61169, whole entry: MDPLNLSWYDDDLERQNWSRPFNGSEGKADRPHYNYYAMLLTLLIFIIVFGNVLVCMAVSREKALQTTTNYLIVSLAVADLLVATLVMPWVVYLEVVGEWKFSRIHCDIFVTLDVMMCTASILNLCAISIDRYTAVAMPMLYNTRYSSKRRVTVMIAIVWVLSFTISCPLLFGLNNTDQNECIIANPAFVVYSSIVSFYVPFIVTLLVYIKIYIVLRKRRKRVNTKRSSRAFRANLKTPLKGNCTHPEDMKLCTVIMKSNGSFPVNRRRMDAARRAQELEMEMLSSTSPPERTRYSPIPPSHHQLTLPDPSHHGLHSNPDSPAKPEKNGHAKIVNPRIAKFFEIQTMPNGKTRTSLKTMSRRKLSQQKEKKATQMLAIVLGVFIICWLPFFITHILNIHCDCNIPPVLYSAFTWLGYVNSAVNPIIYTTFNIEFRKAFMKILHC

In the case of `O=C1NCCN1CCN1CCC(c2cn(-c3ccc(F)cc3)c3ccc(Cl)cc23)CC1` [1-[2-[4-[5-chloro-1-(4-fluorophenyl)-indol-3-yl]-1-piperidyl]ethyl]imidazolidin-2-one], affinity was put at a Ki of 0.38 nM.

The values are drawn from BindingDB's records for PubMed 11171942 (University of Reading, 2001).
